# Measurements: patent US9725445B2, “Cycloalkyl nitrile pyrazolo pyridones as Janus kinase inhibitors” (Merck Sharp & Dohme Corp., priority 2013, dated 2017)
# Chains of the proteins cited; added tags and fusions are not shown. Residues count along the entry.
# UniProt O60674, 849-1124: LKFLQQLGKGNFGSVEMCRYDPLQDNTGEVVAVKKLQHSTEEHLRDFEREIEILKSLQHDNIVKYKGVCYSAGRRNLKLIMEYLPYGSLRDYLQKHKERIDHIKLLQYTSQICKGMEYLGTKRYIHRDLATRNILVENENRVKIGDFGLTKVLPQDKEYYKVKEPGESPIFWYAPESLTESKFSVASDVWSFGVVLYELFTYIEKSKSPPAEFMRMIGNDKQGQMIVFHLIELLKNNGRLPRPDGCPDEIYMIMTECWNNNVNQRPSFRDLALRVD
# UniProt P23458, 875-1153: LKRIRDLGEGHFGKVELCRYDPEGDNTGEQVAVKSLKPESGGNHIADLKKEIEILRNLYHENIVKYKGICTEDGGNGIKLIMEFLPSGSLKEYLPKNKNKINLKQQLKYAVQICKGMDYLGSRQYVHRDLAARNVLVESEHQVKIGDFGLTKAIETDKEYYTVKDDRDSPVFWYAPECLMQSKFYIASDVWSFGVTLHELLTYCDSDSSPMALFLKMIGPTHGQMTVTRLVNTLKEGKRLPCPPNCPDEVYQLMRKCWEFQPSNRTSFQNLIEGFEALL
# Biological target: JAK2 (Homo sapiens (Human), UniProt O60674)
# Test: Jak biochemical HTRF assay, JAK2
# Conditions: recombinant GST-tagged catalytic domain
row,SMILES,IC50 [nM]
1,"CN(C)S(=O)(=O)c1ccc(Nc2nn([C@H]3CCC4(CC4)C[C@@H]3C#N)c3cc[nH]c(=O)c23)cc1 (racemic) [Example 14-2, Racemic-trans-4-((1-(5-cyanospiro[2.5]octan-6-yl)-4-oxo-4,5-dihydro-1H-pyrazolo[4,3-c]pyridin-3-yl)amino)-N,N-dimethylbenzenesulfonamide]",2.2
2,"CC(C)(C)OC(=O)[C@H]1CC[C@@](O)(c2ccc(Nc3nn([C@H]4CCCC[C@@H]4C#N)c4cc[nH]c(=O)c34)cc2)CC1 (racemic) [Example 15-39, (1S,4S and 1R,4R)-tert-butyl 4-(4-((1-((1S,2S)-2-cyanocyclohexyl)-4-oxo-4,5-dihydro-1H-pyrazolo[4,3-c]pyridin-3-yl)amino)phenyl)-4-hydroxycyclohexanecarboxylate]",2.1

# Further lines, results first:
row,IC50 [nM],SMILES
1,4.4,"CS(=O)(=O)c1ccc(Nc2nn([C@H]3CCC4(CC4)C[C@@H]3C#N)c3cc[nH]c(=O)c23)cc1 (racemic) [Example 14-1, Racemic-trans-6-(3-((4-(methylsulfonyl)phenyl)amino)-4-oxo-4,5-dihydro-1H-pyrazolo[4,3-c]pyridin-1-yl)spiro[2.5]octane-5-carbonitrile]"
2,1.5,"CC(C)(C)OC(=O)[C@H]1CC[C@](O)(c2ccc(Nc3nn([C@H]4CCCC[C@@H]4C#N)c4cc[nH]c(=O)c34)cc2)CC1 (racemic) [Example 15-40, (1S,4R and 1R,4S)-tert-butyl 4-(4-((1-((1S,2S)-2-cyanocyclohexyl)-4-oxo-4,5-dihydro-1H-pyrazolo[4,3-c]pyridin-3-yl)amino)phenyl)-4-hydroxycyclohexanecarboxylate]"

# Biological target: JAK1 (Homo sapiens (Human), UniProt P23458)
# Test: Jak biochemical HTRF assay, JAK1
# Conditions: recombinant GST-tagged catalytic domain
# Method: Jak Biochemical HTRF Assay Protocol
# The ability of compounds to inhibit the activity of JAK1, JAK2, JAK3, and Tyk2 was measured using a recombinant purified GST-tagged catalytic domain for each enzyme (Invitrogen JAK1 #M4290, JAK2 #M4290, JAK3 #M4290, Tyk2 #M4290) in an HTRF format biochemical assay. […] The basic assay protocol is as follows: First, 250 nL of diluted compounds in DMSO were dispensed into the wells of a dry 384-well Black plate (Greiner #781076) using a Labcyte Echo 555 acoustic dispenser. Subsequent reagent additions employed an Agilent Bravo. […] After equilibration, 2 μL of 10×ATP in 1× assay buffer was added to initiate the kinase reaction and the plates were shaken and then incubated at room temperature for 120 minutes. […] Plates were shaken and centrifuged and then incubated 60 minutes at room temperature and then read on a Perkin Elmer Envision (λex=337 nm, λem=665 and 615 nm, TRF delay time=20 μs). HTRF signal=10,000*665 nm reading/615 nm reading. After normalization to untreated controls, the percent inhibition of the HTRF signal at each compound concentration was calculated. The plot of percent inhibition versus the log of compound concentration was fit with a 4-parameter dose response equation to calculate IC50 values.
# Final Reaction Conditions were:
# Examples of the instant invention were evaluated in JAK1 and JAK2 in vitro binding assays.
row,SMILES,IC50 [nM]
1,"CN(C)S(=O)(=O)c1ccc(Nc2nn([C@H]3CCC4(CC4)C[C@@H]3C#N)c3cc[nH]c(=O)c23)cc1 (racemic) [Example 14-2, Racemic-trans-4-((1-(5-cyanospiro[2.5]octan-6-yl)-4-oxo-4,5-dihydro-1H-pyrazolo[4,3-c]pyridin-3-yl)amino)-N,N-dimethylbenzenesulfonamide]",0.8
2,"CC(C)(C)OC(=O)[C@H]1CC[C@@](O)(c2ccc(Nc3nn([C@H]4CCCC[C@@H]4C#N)c4cc[nH]c(=O)c34)cc2)CC1 (racemic) [Example 15-39, (1S,4S and 1R,4R)-tert-butyl 4-(4-((1-((1S,2S)-2-cyanocyclohexyl)-4-oxo-4,5-dihydro-1H-pyrazolo[4,3-c]pyridin-3-yl)amino)phenyl)-4-hydroxycyclohexanecarboxylate]",0.34
3,"CC(O)(c1ccc(Nc2nn([C@H]3CCC[C@@H]3C#N)c3cc[nH]c(=O)c23)cc1)C(F)(F)F (single isomer, unassigned) [Example 3-139, (1S,2S)-2-[4-oxo-3-({4-[(1R or 1S)-2,2,2-trifluoro-1-hydroxy-1-methylethyl]phenyl}amino)-4,5-dihydro-1H-pyrazolo[4,3-c]pyridin-1-yl]cyclopentanecarbonitrile]",0.093
4,"N#C[C@H]1CCCC[C@@H]1n1nc(Nc2ccc3c(c2)C(O)C2(CCCCC2)S3(=O)=O)c2c(=O)[nH]ccc21 (single isomer, unassigned) [Example 3-174, (1S,2S)-2-(3-{[(3S or 3R)-3-hydroxy-1,1-dioxido-3H-spiro[1-benzothiophene-2,1′-cyclohexan]-5-yl]amino}-4-oxo-4,5-dihydro-1H-pyrazolo[4,3-c]pyridin-1-yl)cyclohexanecarbonitrile]",0.44
5,"N#C[C@H]1CCCC[C@@H]1n1nc(Nc2ccc3c(c2)C(O)C2(CCCCC2)S3(=O)=O)c2c(=O)[nH]ccc21 (single isomer, unassigned) [Example 3-175, (1S,2S)-2-(3-{[(3R or 3S)-3-hydroxy-1,1-dioxido-3H-spiro[1-benzothiophene-2,1′-cyclohexan]-5-yl]amino}-4-oxo-4,5-dihydro-1H-pyrazolo[4,3-c]pyridin-1-yl)cyclohexanecarbonitrile]",0.1
6,"CC(C)C(c1ccc(Nc2nn([C@H]3CCCC[C@@H]3C#N)c3cc[nH]c(=O)c23)cc1)n1ccnn1 (single isomer, unassigned) [Example 15-23, (1S,2S)-2-[3-({4-[(1R or 1S)-2-methyl-1-(1H-1,2,3-triazol-1-yl)propyl]phenyl}amino)-4-oxo-4,5-dihydro-1H-pyrazolo[4,3-c]pyridin-1-yl]cyclohexanecarbonitrile]",0.079
7,"CC(C)C(c1ccc(Nc2nn([C@H]3CCCC[C@@H]3C#N)c3cc[nH]c(=O)c23)cc1)n1ccnn1 (single isomer, unassigned) [Example 15-24, (1S,2S)-2-[3-({4-[(1S or 1R)-2-methyl-1-(1H-1,2,3-triazol-1-yl)propyl]phenyl}amino)-4-oxo-4,5-dihydro-1H-pyrazolo[4,3-c]pyridin-1-yl]cyclohexanecarbonitrile]",0.069
8,"N#C[C@H]1CCCCC[C@@H]1n1nc(Nc2ccc3c(c2)CN(C2CCCC2)C3=O)c2c(=O)[nH]ccc21 (single isomer, unassigned) [Example 15-50, (1S,2S or 1R,2R)-2-{3-[(2-cyclopentyl-1-oxo-2,3-dihydro-1H-isoindol-5-yl)amino]-4-oxo-4,5-dihydro-1H-pyrazolo[4,3-c]pyridin-1-yl}cycloheptanecarbonitrile]",6.6
9,"N#C[C@@H]1CCCCC[C@H]1n1nc(Nc2ccc3c(c2)CN(C2CCCC2)C3=O)c2c(=O)[nH]ccc21 (single isomer, unassigned) [Example 15-52, (1R,2R or 1S,2S)-2-{3-[(2-cyclopentyl-1-oxo-2,3-dihydro-1H-isoindol-5-yl)amino]-4-oxo-4,5-dihydro-1H-pyrazolo[4,3-c]pyridin-1-yl}cycloheptanecarbonitrile]",0.053
10,"CC(C)C(c1ccc(Nc2nn([C@H]3CCCC[C@@H]3C#N)c3cc[nH]c(=O)c23)cc1)n1cc(C(C)(C)C)nn1 (single isomer, unassigned) [Example 15-55, (1S,2S)-2-[3-({4-[(1S or 1R)-1-(4-tert-butyl-1H-1,2,3-triazol-1-yl)-2-methylpropyl]phenyl}amino)-4-oxo-4,5-dihydro-1H-pyrazolo[4,3-c]pyridin-1-yl]cyclohexanecarbonitrile]",0.76
11,"N#C[C@H]1CCCC[C@@H]1n1nc(Nc2ccc(C3(C(F)(F)F)CCCCN3)cc2)c2c(=O)[nH]ccc21 (single isomer, unassigned) [Example 15-74, (1S,2S)-2-[4-oxo-3-({4-[(2S or 2R)-2-(trifluoromethyl)piperidin-2-yl]phenyl}amino)-4,5-dihydro-1H-pyrazolo[4,3-c]pyridin-1-yl]cyclohexanecarbonitrile]",0.1
12,"CC(C)(C)S(=O)(=O)c1ccc(Nc2nn([C@@H]3CC(F)(F)C[C@@H]3C#N)c3cc[nH]c(=O)c23)cc1 (single isomer, unassigned) [Example 22-2, (1S,2R or 1R,2S)-2-(3-((4-(tert-Butylsulfonyl)phenyl)amino)-4-oxo-4,5-dihydro-1H-pyrazolo[4,3-c]pyridin-1-yl)-4,4-difluorocyclopentanecarbonitrile]",16
13,"N#C[C@H]1CCCC[C@@H]1n1nc(Nc2ccc3c(c2)CCNC3)c2c(=O)[nH]ccc21 [Example 3-156, (1S,2S)-2-[4-oxo-3-(1,2,3,4-tetrahydroisoquinolin-6-ylamino)-4,5-dihydro-1H-pyrazolo[4,3-c]pyridin-1-yl]cyclohexanecarbonitrile]",0.82
14,"N#C[C@H]1C[C@@H](N2CCC2)CC[C@@H]1n1nc(Nc2ccc(Cl)cc2)c2c(=O)[nH]ccc21 [Example 5-18, (1S,2S,5S)-5-(azetidin-1-yl)-2-(3-((4-chlorophenyl)amino)-4-oxo-4,5-dihydro-1H-pyrazolo[4,3-c]pyridin-1-yl)cyclohexanecarbonitrile]",0.54

# Further compounds by falling IC50, results first:
row,IC50 [nM],SMILES
1,2.8,"CC(O)(CCO)c1cc(Nc2nn([C@H]3CCCC[C@@H]3C#N)c3cc[nH]c(=O)c23)ccc1S(C)(=O)=O (stereo partly drawn) [Example 3-86, (1S,2S)-2-(3-{[3-(1,3-dihydroxy-1-methylpropyl)-4-(methylsulfonyl)phenyl]amino}-4-oxo-4,5-dihydro-1H-pyrazolo[4,3-c]pyridin-1-yl)cyclohexanecarbonitrile]"
2,1.7,"CC(C)(C)S(=O)(=O)c1ccc(Nc2nn([C@H]3CC(F)(F)C[C@H]3C#N)c3cc[nH]c(=O)c23)cc1 (single isomer, unassigned) [Example 22-1, (1R,2S or 1S,2R)-2-(3-((4-(tert-Butylsulfonyl)phenyl)amino)-4-oxo-4,5-dihydro-1H-pyrazolo[4,3-c]pyridin-1-yl)-4,4-difluorocyclopentanecarbonitrile]"
3,1.3,"C[C@H](N[C@H]1CC[C@H](n2nc(Nc3ccc(Cl)c(F)c3)c3c(=O)[nH]ccc32)[C@@H](C#N)C1)C1CC1 [Example 5-6, (1S,2S,5S)-2-(3-((4-chloro-3-fluorophenyl)amino)-4-oxo-4,5-dihydro-1H-pyrazolo[4,3-c]pyridin-1-yl)-5-(((S)-1-cyclopropylethyl)amino)cyclohexanecarbonitrile]"
4,1.1,"CS(=O)(=O)c1ccc(Nc2nn([C@H]3CCC4(CC4)C[C@@H]3C#N)c3cc[nH]c(=O)c23)cc1 (racemic) [Example 14-1, Racemic-trans-6-(3-((4-(methylsulfonyl)phenyl)amino)-4-oxo-4,5-dihydro-1H-pyrazolo[4,3-c]pyridin-1-yl)spiro[2.5]octane-5-carbonitrile]"
5,0.81,"CC(C)C(c1ccc(Nc2nn([C@H]3CCCC[C@@H]3C#N)c3cc[nH]c(=O)c23)cc1)n1cc(C(C)(C)C)nn1 (single isomer, unassigned) [Example 15-56, (1S,2S)-2-[3-({4-[(1R or 1S)-1-(4-tert-butyl-1H-1,2,3-triazol-1-yl)-2-methylpropyl]phenyl}amino)-4-oxo-4,5-dihydro-1H-pyrazolo[4,3-c]pyridin-1-yl]cyclohexanecarbonitrile]"
6,0.77,"CC(C)(C)OC(=O)[C@H]1CC[C@](O)(c2ccc(Nc3nn([C@H]4CCCC[C@@H]4C#N)c4cc[nH]c(=O)c34)cc2)CC1 (racemic) [Example 15-40, (1S,4R and 1R,4S)-tert-butyl 4-(4-((1-((1S,2S)-2-cyanocyclohexyl)-4-oxo-4,5-dihydro-1H-pyrazolo[4,3-c]pyridin-3-yl)amino)phenyl)-4-hydroxycyclohexanecarboxylate]"
7,0.14,"N#C[C@H]1CCCC[C@@H]1n1nc(Nc2ccc(C(O)C(F)F)cc2)c2c(=O)[nH]ccc21 (stereo partly drawn) [Example 3-70, (1S,2S)-2-(3-{[4-(2,2-difluoro-1-hydroxyethyl)phenyl]amino}-4-oxo-4,5-dihydro-1H-pyrazolo[4,3-c]pyridin-1-yl)cyclohexanecarbonitrile]"
8,0.12,"N#C[C@H]1CCCC[C@@H]1n1nc(Nc2ccc(C3(C(F)(F)F)CCCCN3)cc2)c2c(=O)[nH]ccc21 (single isomer, unassigned) [Example 15-75, (1S,2S)-2-[4-oxo-3-({4-[(2R or 2S)-2-(trifluoromethyl)piperidin-2-yl]phenyl}amino)-4,5-dihydro-1H-pyrazolo[4,3-c]pyridin-1-yl]cyclohexanecarbonitrile]"
